Target: T1, Corticotropin-releasing factor receptor 1 (Homo sapiens, UniProt P34998)
T1 sequence (P34998 whole entry): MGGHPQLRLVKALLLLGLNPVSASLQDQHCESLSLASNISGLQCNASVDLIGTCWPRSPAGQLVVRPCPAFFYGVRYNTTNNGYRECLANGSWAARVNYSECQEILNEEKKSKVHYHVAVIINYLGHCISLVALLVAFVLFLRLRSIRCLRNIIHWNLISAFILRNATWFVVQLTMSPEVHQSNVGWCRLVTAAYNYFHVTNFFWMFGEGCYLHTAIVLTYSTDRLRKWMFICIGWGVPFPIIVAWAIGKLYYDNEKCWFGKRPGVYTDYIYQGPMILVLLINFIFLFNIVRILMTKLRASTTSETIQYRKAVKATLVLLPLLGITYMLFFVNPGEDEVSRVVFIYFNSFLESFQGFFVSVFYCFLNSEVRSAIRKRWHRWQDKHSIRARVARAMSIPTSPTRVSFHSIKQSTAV
Test: Binding affinity by displacement of [125I]Tyr-o-CRF from human corticotropin releasing factor receptor 1 expressed in IMR-32 human neuroblastoma cell.

Ki [µM] | SMILES
3.5 | CCCN(Cc1oc(Nc2c(Cl)cc(Cl)cc2Cl)nc1C(F)(F)F)CC1CC1
4.6 | CCCN(Cc1sc(Nc2ccc(Cl)cc2Cl)nc1C(F)(F)F)CC1CC1

Source: ChEMBL document CHEMBL1136357, “2-arylaminothiazoles as high-affinity corticotropin-releasing factor 1 receptor (CRF1R) antagonists: synthesis, binding studies and behavioral efficacy” (Bioorg Med Chem Lett, 2003)
